Apparent affinities of Ab-14 variants for a coronavirus HR2 peptide

Reference: Li et al. 2023, doi:10.1038/s41467-023-39022-2. File: FLAb, binding data.

Binding partner: SARS-CoV-2 spike HR2 peptide, sequence PDVDLGDISGINAS.

Ab-14 is the parent antibody, in scFv form: VH, then the linker GGGGSGGGGSGGGGS, then VL. The heavy chain is unchanged in all variants.
VH: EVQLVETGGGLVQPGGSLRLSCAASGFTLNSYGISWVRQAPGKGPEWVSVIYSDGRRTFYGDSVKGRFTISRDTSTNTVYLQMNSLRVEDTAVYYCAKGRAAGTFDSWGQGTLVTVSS
VL: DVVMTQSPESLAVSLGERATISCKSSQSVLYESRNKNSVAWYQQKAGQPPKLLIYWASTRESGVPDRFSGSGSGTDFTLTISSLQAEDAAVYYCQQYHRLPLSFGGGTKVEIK

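These sequences belong to a second round, designed from the earlier measurements on random variants of the parent. Group labels follow the data file (Ctrl: baseline library sampled from a position-specific scoring matrix, with some repeated check sequences; Rand: our label for a block that the file lists under HC and that is probably the random mutants of the ten best first-round binders; GP: Gaussian process model; HC: hill climbing; Gen: genetic algorithm; Gibbs: Gibbs sampling; a sequence that several methods proposed may carry one label only). Affinity was read by AlphaSeq, a pooled yeast mating assay with surface-displayed partners. Binding brings cells together so that they mate, and sequencing counts the barcode pairs among the diploids. The ratio of observed to expected reads was calibrated, replicate by replicate, on BCL2-family standards whose Kd was known from biolayer interferometry. There are six technical replicates.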

Each variant is given by its three light chain CDRs, as the data file delimits them; those of the parent are KSSQSVLYESRNKNSVA, WASTRES, QQYHRLPLS.
Variants here have at most six changes.
The Kd shown is the geometric mean over detected replicates; a lower Kd is a better binder.
"nd" means that the variant was in the library but no mating with the target was seen in any replicate; the authors take this as a sign of poor binding, and no number exists.
Entries are sorted by rising average, undetected variants last.
The range of this assay differs from that of the first round, and the authors advise against merging the two.
The authors' rule: three or more of the six replicates give a measured affinity, fewer mean a poor binder.
As a blank, each scFv also met three strains without target: over all light chain designs, 4% of these pairings were detected, typically at 430 nM and seldom below 38 nM. For each scFv, signals with the empty controls are counted beside the result.
Of ten entries with the parent sequence, four were seen in most replicates (averages 2.2 nM to 240 nM), three in one and three in none, so single entries are noisy.

The variant KLSQSVLYEPRNKQSVA / DASTRYS / QQYHRLPLS [GP_Gibbs] showed 380 pM (6 of 6 replicates; controls 0 of 18).
The variant KLQQSVEYESRNKNSVA / NASTRLS / QQYHRLPLS [GP_Gen] showed 550 pM (6 of 6 replicates; controls 1 of 18).
The variant KLQQSVEYESRNKNSVA / NASTRES / QQYHRLPLS [GP_Gen] showed 560 pM (6 of 6 replicates; controls 0 of 18).
The variant KLSQSWLYESRNKNSVA / NASQREW / QQYHRLPLS [GP_Gen] showed 600 pM (6 of 6 replicates; controls 0 of 18).
The variant KISQSFLYESRNVNSVA / GASTRDS / QQYHRLPLS [GP_HC] showed 670 pM (6 of 6 replicates; controls 1 of 18).
The variant KLSQSELYESRNKNSVA / NASTRES / QQYHRLPLQ [GP_Gen] showed 790 pM (6 of 6 replicates; controls 0 of 18).
The variant KLSQSDLYDSRNKNSVA / DASTRES / QQYHSLPLS [Ctrl] showed 990 pM (6 of 6 replicates; controls 1 of 18).
The variant KVSQSVLGEERNKNSVA / DASTRES / QQYHRLPLS [GP_HC] showed 1.1 nM (6 of 6 replicates; controls 3 of 18).
The variant KSSGSVLQESRNQNSVA / EASTREV / QQYHRLPLS [GP_Gibbs] showed 1.3 nM (6 of 6 replicates; controls 4 of 18).
The variant KFSQKVLYETRTKNSVA / NASTRES / QQYHRLPLS [GP_HC] showed 1.3 nM (6 of 6 replicates; controls 0 of 18).
The variant KLHQSVLYESRHKNSVA / NASQRES / QQYHRLPLS [GP_Gibbs] showed 1.3 nM (6 of 6 replicates; controls 2 of 18).
The variant KLSQSVPYESRNKNSVA / NASTRCS / QQYHRLPLS [GP_Gen] showed 1.4 nM (6 of 6 replicates; controls 0 of 18).
The variant KSSQSFLYESRNKNSVA / NASTRES / QQYHRLPLS [Ctrl] showed 1.8 nM (6 of 6 replicates; controls 0 of 18).
The variant KTSQSVLYESREKNSIA / GASTRES / QQYHRLPLS [Ctrl] showed 2.0 nM (6 of 6 replicates; controls 0 of 18).
The variant KSSISNLYESRMKNSVA / EASTRES / QQYHRLPLS [GP_HC] showed 2.0 nM (6 of 6 replicates; controls 1 of 18).
The variant KVPGSNLYESRNKNSVA / HASTRES / QDYHRLPLS [GP_Gibbs] showed 2.3 nM (6 of 6 replicates; controls 0 of 18).
The variant KSDQSVLYESRNKNSVA / AADTRES / QQYHRLPLS [Ctrl] showed 2.4 nM (6 of 6 replicates; controls 5 of 18).
The variant KSSQSVLYESRNKNSVA / DATTREW / QQYHRLPLS [Ctrl] showed 2.4 nM (6 of 6 replicates; controls 3 of 18).
The variant KSTQSLLYESHNKNSVA / NSSTRES / QQYHHLPLS [Ctrl] showed 4.2 nM (6 of 6 replicates; controls 0 of 18).
The variant KSSISLLYESRMKNSVA / EASTRES / QQYHRLPLS [GP_HC] showed 4.3 nM (6 of 6 replicates; controls 1 of 18).
The variant KIQQSVLPESRNKNSVA / WASTRES / QQYHRLPLS [Ctrl] showed 6.2 nM (6 of 6 replicates; controls 1 of 18).
The variant KMSQSVLLESRNKHSVA / WASTRES / QQYHRLPLS [Ctrl] showed 7.1 nM (6 of 6 replicates; controls 0 of 18).
The variant KQSQSVLYESRNKTSVA / DASTRES / QQYHRLPLS [Rand] showed 9.6 nM (6 of 6 replicates; controls 0 of 18).
The variant ALSQSVLYESDNKNSVA / WASQRGS / QQYHRLPLS [Ctrl] showed 10 nM (6 of 6 replicates; controls 0 of 18).
The variant KMSQSVLMESRNKNSVA / EASLRES / QQYHRLPLS [GP_HC] showed 69 nM (6 of 6 replicates; controls 0 of 18).
The variant KSGQSVLMESRNKNSVA / TASTRED / QQYHRLPLS [Rand] showed 72 nM (6 of 6 replicates; controls 1 of 18).
The variant KLAQQTLYESRNKNSVA / WASTREE / QQYHRLPLS [GP_HC] showed 120 nM (5 of 6 replicates; controls 0 of 18).
The variant KSSQSQLYESRNKNSVA / GASQRES / QQYHRLTLS [GP_HC] showed 310 nM (1 of 6 replicates; controls 0 of 18).
The variant KSSQSVLYESRNKYSVA / WAQTRES / QQYHRLPLS [Ctrl] showed 350 nM (5 of 6 replicates; controls 1 of 18).
The variant KSSQSFLYESMNKNSVA / WASTRES / QQYVRLPLS [Ctrl] showed 460 nM (2 of 6 replicates; controls 1 of 18).
The variant KSSQSVMEESRNKNSIA / WVTTRES / QQYHRLPLS [Ctrl] showed 2.9 µM (2 of 6 replicates; controls 2 of 18).
The variant KSSQSVLVESRNKNSVA / WASTRES / QQYARLPLS [Ctrl] showed nd (0 of 6 replicates; controls 1 of 18).
The variant KSAQSVLYESRNKNSVA / WASHRES / QVYHRLPLS [Ctrl] showed nd (0 of 6 replicates; controls 0 of 18).
The variant KSSQSFLYTSRNKNSVA / GAYTRES / QQYHRLTLS [Rand] showed nd (0 of 6 replicates; controls 0 of 18).
The variant KSSQSVLQESRNKNSVA / MMSTRES / QQYHRLPLS [Ctrl] showed nd (0 of 6 replicates; controls 0 of 18).
The variant KSSQSVLYESRNKFAVA / WASTRES / QQYHRLPLS [Ctrl] showed nd (0 of 6 replicates; controls 0 of 18).
The variant KSSQSNLYESRNKNSVA / WASTRES / NQYWRLPLS [Ctrl] showed nd (0 of 6 replicates; controls 0 of 18).

The first 4 variants above that were never detected:

Variant KSSQSVLVESRNKNSVA / WASTRES / QQYARLPLS [Ctrl] gave nd (0 of 6 replicates; controls 1 of 18).
Variant KSAQSVLYESRNKNSVA / WASHRES / QVYHRLPLS [Ctrl] gave nd (0 of 6 replicates; controls 0 of 18).
Variant KSSQSFLYTSRNKNSVA / GAYTRES / QQYHRLTLS [Rand] gave nd (0 of 6 replicates; controls 0 of 18).
Variant KSSQSVLQESRNKNSVA / MMSTRES / QQYHRLPLS [Ctrl] gave nd (0 of 6 replicates; controls 0 of 18).